The values below are quoted from earlier work in patent US12649758B2, “Industrial method for simultaneously preparing Stevia rebaudiana chlorogenic acid and stevioside” (Chenguang Biotech Group Co., Ltd., priority 2018, dated 2026).

Take mono-caffeoyl chlorogenic acid: the “solubility in a lipophilic organic solvent” value (lipophilic organic solvent) is “hardly soluble”. Where the note is “water, 25° C.”, the solubility in water is given as 4%.
